{
  "source": "paper PMC10259452",
  "about": "(Journal of Medicinal Chemistry, 2023)",
  "key": {"MDR1-MDCKII cells": {"system": "MDR1-MDCKII cells", "conditions": "MDCK-MDR1"}},
  "data": [
    {"smiles": "CCC1CCc2c(sc(NC(=O)c3ccnn3C)c2C(=O)Nc2ccccc2C)C1", "note": "(centres unmarked) [Compound 4, N-(6-Ethyl-3-{[(2-methylphenyl)amino]carbonyl}-4,5,6,7-tetrahydro-1-benzothien-2-yl)-1-methyl-1H-pyrazole-5-carboxamide]", "values": [
      {"measurement": "Caco-2 permeability in the A–B direction, grade in words", "setting": "Caco-2 cells", "value": "low permeability"},
      {"measurement": "MDR1-MDCKII permeability in the A–B direction, grade in words", "setting": "MDR1-MDCKII cells", "value": "moderate"}
    ]},
    {"smiles": "Cn1ccnc1SCC(=O)Nc1sc2c(c1C(=O)NCc1ccccc1)CCCC2", "note": "[Compound 16, N-Benzyl-2-(2-((1-methyl-1H-imidazole-2-yl)thio)acetamido)-4,5,6,7-tetrahydrobenzo[b]thiophene-3-carboxamide]", "values": [
      {"measurement": "Caco-2 permeability in the A–B direction, grade in words", "setting": "Caco-2 cells", "value": "high permeability"},
      {"measurement": "MDR1-MDCKII permeability in the A–B direction, grade in words", "setting": "MDR1-MDCKII cells", "value": "high"}
    ]},
    {"smiles": "C[C@@H]1CCN(C(=O)c2c(NC(=O)c3cccnc3)sc3c2CCCC3)[C@H](C)C1", "note": "[Compound 13, N-(3-((2R,4R)-2,4-Dimethylpiperidine-1-carbonyl)-4,5,6,7-tetrahydrobenzo[b]thiophen-2-yl) Nicotinamide]", "values": [
      {"measurement": "Caco-2 permeability in the A–B direction, grade in words", "setting": "Caco-2 cells", "value": "high permeability"},
      {"measurement": "MDR1-MDCKII permeability in the A–B direction, grade in words", "setting": "MDR1-MDCKII cells", "value": "high"}
    ]},
    {"smiles": "CC1CCc2c(sc(NC(=O)c3ccccc3F)c2C(=O)N2CCN(C)CC2)C1", "note": "(centres unmarked) [Compound 6, 2-Fluoro-N-{6-methyl-3-[(4-methyl-1-piperazinyl)carbonyl]-4,5,6,7-tetrahydro-1-benzothien-2-yl} Benzamide]", "values": [
      {"measurement": "Caco-2 permeability in the A–B direction, grade in words", "setting": "Caco-2 cells", "value": "high permeability"},
      {"measurement": "MDR1-MDCKII permeability in the A–B direction, grade in words", "setting": "MDR1-MDCKII cells", "value": "high"}
    ]}
  ]
}
